The values that follow are results of earlier work, collected in the PKSmart pharmacokinetics tables (Seal et al. 2025).

Series [1] in a line: Lombardo, Berellini, Obach 2018, Drug Metab Dispos 46:1466, doi 10.1124/dmd.118.082966. The conditions noted are these: human; for MRT / Vd / clearance / half-life: in vivo, iv; for fraction unbound: plasma.
Series [2] is described as follows: Lombardo et al. 2013, J Clin Pharmacol 53:178, doi 10.1177/0091270012440282. The following applies: for Vd / clearance: in vivo, iv; for fraction unbound: plasma.

Molecules are shown by their SMILES.

In the case of `CN(C)c1ccc(O)c2c1C[C@H]1C[C@H]3[C@H](N(C)C)C(O)=C(C(N)=O)C(=O)[C@@]3(O)C(O)=C1C2=O`, in series [1], the mean residence time (MRT) is 22 h, the Vd is 1.6 L/kg, the clearance is 1.2 mL/min/kg and the half-life is 17 h.
For the compound `COc1ccc(CCO[C@@H]2CCCC[C@H]2N2CC[C@@H](O)C2)cc1OC`, in series [1], the MRT was 3 h, the distribution volume (Vd) was 1.8 L/kg, the clearance is 8.29 mL/min/kg and the half-life is 3.13 h.
For `O=C(CCCCCCC(O)=NO)Nc1ccccc1`, in series [1], the clearance was 28 mL/min/kg, the half-life was 0.76 h and the unbound share (fraction unbound) is 0.29. In addition, in series [2] (dog), the Vd is 0.6 L/kg and the clearance was 54.7 mL/min/kg. Besides, the fraction unbound in series [2] (rat) is 0.61.
In the case of `Nc1nc2[nH]cc(CCc3ccc(C(=O)NC(CCC(=O)O)C(=O)O)cc3)c2c(=O)[nH]1` (configuration not stated), in series [1], the fraction unbound was 0.19.
With `CC1COc2c(N3CCN(C)CC3)c(F)cc3c(=O)c(C(=O)O)cn1c23` (configuration not stated), the free fraction (fraction unbound) in series [2] (rat) is 0.64.
As to `CCn1cc(C(=O)O)c(=O)c2cc(F)c(N3CCNCC3)nc21`, in series [2] (rat), the free fraction (fraction unbound) is 0.65.
Turning to `NC(=O)c1ncn([C@@H]2O[C@H](CO)[C@@H](O)[C@H]2O)n1`, in series [2] (rat), the unbound share (fraction unbound) was 0.95.
As for `Nc1ncn([C@@H]2O[C@H](CO)[C@@H](O)[C@H]2O)c(=O)n1`, in series [1], the MRT was 0.22 h, the Vd was 0.47 L/kg, the clearance is 35 mL/min/kg and the half-life is 0.36 h.
As for `Nc1ccn([C@@H]2O[C@H](CO)[C@@H](O)[C@@H]2O)c(=O)n1`, the free fraction (fraction unbound) in series [1] was 0.87.
In the case of `Nc1nc(Cl)nc2c1ncn2[C@H]1C[C@H](O)[C@@H](CO)O1`, in series [2] (rat), the Vd was 4.5 L/kg and the clearance was 25.3 mL/min/kg.
For the compound `CCN(CC)CCCC(C)Nc1c2ccc(Cl)cc2nc2ccc(OC)cc12` (configuration not stated), in series [1], the free fraction (fraction unbound) was 0.13.
As for `CN[C@@H]1[C@@H](O)[C@@H](O[C@@H]2[C@@H](O)[C@H](O[C@H]3O[C@H]([C@@H](C)N)CC[C@H]3N)[C@@H](N)C[C@H]2N)OC[C@]1(C)O`, in series [1], the MRT was 5.5 h, the Vd is 0.33 L/kg, the clearance was 1 mL/min/kg and the half-life was 4.7 h.
On to `CN1CCc2cccc3c2[C@H]1Cc1ccc(O)c(O)c1-3`, for which, in series [2] (rat), the volume of distribution (Vd) was 2.7 L/kg and the clearance is 196 mL/min/kg.
For `CC(CN1c2ccccc2Sc2ccccc21)N(C)C` (configuration not stated), in series [1], the MRT was 17 h and the half-life is 14 h.
For `COC(=O)C1[C@@H](O)CC[C@H]2CN3CCc4c([nH]c5ccccc45)[C@@H]3C[C@@H]12` (some centres not stated), in series [1], the fraction unbound is 0.2.
With `S=c1[nH]cnc2[nH]cnc12`, in series [1], the clearance is 15 mL/min/kg and the fraction unbound is 0.85.
As for `COc1ccc2c3c1O[C@H]1[C@@H](O)C=C[C@H]4[C@@H](C2)N(C)CC[C@@]341`, in series [2] (rat), the Vd was 5.1 L/kg and the clearance is 103 mL/min/kg.
As to `Cc1ccc(C(=O)N(CCCN)C(c2nc3snc(C)c3c(=O)n2Cc2ccccc2)C(C)C)cc1` (configuration not stated), in series [1], the MRT is 19 h, the volume of distribution (Vd) is 6.74 L/kg, the clearance was 5.83 mL/min/kg and the half-life is 16.3 h.
`CC(C)NCC(O)c1ccc(NS(C)(=O)=O)cc1` (configuration not stated): in series [1], the mean residence time (MRT) is 11 h, the Vd is 1.3 L/kg and the half-life is 6.3 h. Moreover, in series [2] (dog), the clearance was 14.7 mL/min/kg.
As for `NCCCCC(NC(CCc1ccccc1)C(=O)O)C(=O)N1CCCC1C(=O)O` (configuration not stated), in series [1], the MRT was 12 h, the distribution volume (Vd) was 0.89 L/kg and the half-life is 42 h.
For the compound `CN1CCC[C@@H]1Cc1c[nH]c2ccc(CCS(=O)(=O)c3ccccc3)cc12`, in series [1], the Vd was 1.6 L/kg, the clearance is 5.3 mL/min/kg, the half-life is 4.2 h and the fraction unbound is 0.15.
Take `CNC(=O)c1c(I)c(NC(C)=O)c(I)c(C(=O)O)c1I`: the free fraction (fraction unbound) in series [1] is 0.98.
For `CNCC[C@@H](Oc1ccccc1C)c1ccccc1`, in series [2] (dog), the Vd is 1.4 L/kg and the clearance is 7.4 mL/min/kg.
Consider `O=c1[nH]cc(F)c(=O)[nH]1`, for which, in series [1], the mean residence time (MRT) is 0.15 h and the half-life is 0.12 h.
Turning to `O=P(O)(O)C(O)(Cc1cccnc1)P(=O)(O)O`, in series [1], the clearance was 1.5 mL/min/kg and the half-life is 200 h.
Consider `COCCc1ccc(OCC(O)CNC(C)C)cc1` (configuration not stated), for which, in series [2] (dog), the volume of distribution (Vd) is 3.1 L/kg and the clearance was 32.8 mL/min/kg.
For `OC(CCN1CCCCC1)(c1ccccc1)C1CC2C=CC1C2` (configuration not stated), in series [1], the MRT is 17 h, the Vd is 12 L/kg and the half-life is 24 h. For the same compound, in series [2] (rat), the Vd was 12 L/kg and the clearance is 68 mL/min/kg.
For `CNC1(c2ccccc2Cl)CCCCC1=O` (configuration not stated), in series [2] (rat), the fraction unbound was 0.53.
On to `CC(C)NCC(O)COc1cccc2[nH]ccc12` (configuration not stated), for which the fraction unbound in series [2] (rat) is 0.57.
Regarding `OC[C@@H]1O[C@@H](n2cnc3c2N=CNC[C@H]3O)C[C@H]1O`, in series [1], the free fraction (fraction unbound) was 0.96.
Turning to `Nc1ccn([C@H]2CC[C@@H](CO)O2)c(=O)n1`, in series [1], the MRT was 1.6 h, the distribution volume (Vd) is 0.54 L/kg, the clearance was 5.6 mL/min/kg and the half-life was 1.2 h.
Consider `CN1C[C@@H]2c3ccccc3Oc3ccc(Cl)cc3[C@H]2C1`, for which the fraction unbound in series [1] was 0.05.
Turning to `C[C@]12C[C@]3(O)O[C@@H](O1)[C@@]1(COC(=O)c4ccccc4)[C@@H]3C[C@]12O[C@@H]1O[C@H](CO)[C@@H](O)[C@H](O)[C@H]1O`, in series [1], the mean residence time (MRT) was 1.83 h, the distribution volume (Vd) is 0.22 L/kg, the clearance was 2.05 mL/min/kg and the half-life was 1.49 h.
As to `C[C@]12C=CC(=O)C=C1CC[C@@H]1[C@@H]2[C@@H](O)C[C@@]2(C)[C@H]1CC[C@]2(O)C(=O)CO`, in series [1], the MRT is 4.8 h, the Vd is 0.86 L/kg, the clearance is 2.9 mL/min/kg and the half-life was 3.4 h.
Regarding `CC(C)NCC(O)COc1ccc(COCCOC(C)C)cc1` (configuration not stated), the unbound share (fraction unbound) in series [2] (dog) is 0.72.
Consider `N#Cc1ccc(C(c2ccc(C#N)cc2)n2cncn2)cc1`, for which, in series [1], the MRT is 59 h and the half-life is 45 h. For the same compound, in series [2] (rat), the distribution volume (Vd) was 2.02 L/kg and the clearance is 0.66 mL/min/kg.
Regarding `C[C@@H](CN1CC(=O)NC(=O)C1)N1CC(=O)NC(=O)C1`, the fraction unbound in series [2] (dog) is 0.94.
Consider `O=C(c1ccccc1)c1ccc2n1CCC2C(=O)O` (configuration not stated), for which, in series [1], the mean residence time (MRT) is 5.2 h and the half-life is 5.1 h.
Take `CC(C)C[C@H](NC(=O)C(Cc1ccccc1)NC(=O)c1cnccn1)B(O)O` (some centres not stated): in series [1], the mean residence time (MRT) was 8.8 h, the clearance is 19 mL/min/kg, the half-life was 18 h and the free fraction (fraction unbound) is 0.17.
Regarding `COc1ccc([C@@H]2Sc3ccccc3N(CCN(C)C)C(=O)C2OC(C)=O)cc1` (some centres not stated), in series [1], the clearance is 13 mL/min/kg and the half-life was 5.6 h.
With `CC1(C)S[C@@H]2C(NC(=O)C(C(=O)O)c3ccccc3)C(=O)N2C1C(=O)O` (some centres not stated), the free fraction (fraction unbound) in series [1] was 0.52.
For the compound `COC(=O)C1=C(C)NC(C)=C(C(=O)OCC(C)C)C1c1ccccc1[N+](=O)[O-]` (configuration not stated), in series [2] (rat), the fraction unbound is 0.009.
For `NC[C@H]1O[C@H](O[C@H]2[C@H](O)[C@@H](O[C@H]3O[C@H](CO)[C@@H](O)[C@H](N)[C@H]3O)[C@H](N)C[C@@H]2N)[C@H](O)[C@@H](O)[C@@H]1O`, in series [1], the free fraction (fraction unbound) is 0.99.
For `C[N+]1(CC2CC2)CC[C@]23c4c5ccc([O-])c4OC2C(=O)CC[C@@]3(O)[C@H]1C5` (some centres not stated), in series [1], the volume of distribution (Vd) was 2.6 L/kg, the clearance was 22 mL/min/kg and the half-life was 2.5 h.
As for `C[C@@H](Oc1cc(-c2cnn(C3CCNCC3)c2)cnc1N)c1c(Cl)ccc(F)c1Cl`, in series [1], the MRT was 37.9 h, the Vd was 22.1 L/kg, the clearance is 9.75 mL/min/kg and the half-life is 38.9 h.
As to `O=C(NCC1CCCCN1)c1cc(OCC(F)(F)F)ccc1OCC(F)(F)F` (configuration not stated), in series [2] (rat), the fraction unbound is 0.41.
For the compound `CCCc1nc(C)c2c(=O)[nH]c(-c3cc(S(=O)(=O)N4CCN(CC)CC4)ccc3OCC)nn12`, in series [1], the MRT is 3.8 h and the half-life is 4.5 h.
For the compound `NCCCNCCSP(=O)(O)O`, in series [1], the MRT is 0.05 h, the Vd was 0.09 L/kg, the clearance is 30.6 mL/min/kg and the half-life is 0.15 h.
Consider `OCCN(CCO)c1nc(N2CCCCC2)c2nc(N(CCO)CCO)nc(N3CCCCC3)c2n1`, for which the free fraction (fraction unbound) in series [1] is 0.009.
As to `CN(Cc1cnc2nc(N)nc(N)c2n1)c1ccc(C(=O)NC(CCC(=O)O)C(=O)O)cc1` (configuration not stated), in series [2] (dog), the Vd was 0.54 L/kg and the clearance is 0.587 mL/min/kg. Besides, in series [2] (rat), the distribution volume (Vd) is 0.16 L/kg and the clearance was 10.5 mL/min/kg.
As to `Nc1nc(-n2cc(C(=O)O)c(=O)c3cc(F)c(N4CC(O)C4)c(Cl)c32)c(F)cc1F`, the fraction unbound in series [1] was 0.16.
Take `Nc1ncn([C@H]2C[C@H](O)[C@@H](CO)O2)c(=O)n1`: the free fraction (fraction unbound) in series [2] (dog) and in series [2] (rat) was 1 in each case.
In the case of `S=c1nc[nH]c2nc[nH]c12`, in series [2] (monkey), the Vd was 0.9 L/kg and the clearance is 15.2 mL/min/kg.
`Cc1cn([C@H]2C[C@H](N=[N+]=[N-])[C@@H](CO)O2)c(=O)[nH]c1=O`: in series [2] (rat), the Vd is 0.86 L/kg, the clearance was 25.1 mL/min/kg and the fraction unbound is 0.687.
As for `CCN(CC)CCNC(=O)c1ccc(NS(C)(=O)=O)cc1`, the free fraction (fraction unbound) was 0.95 in series [2] (dog) and 0.91 in series [2] (rat).
For the compound `O=c1c(O)c(-c2ccc(O)c(O)c2)oc2cc(O)cc(O)c12`, the fraction unbound in series [2] (rat) was 0.02.
In the case of `CC[C@H]1OC(=O)C(C)[C@@H](O[C@H]2C[C@@](C)(OC)[C@@H](O)[C@H](C)O2)[C@H](C)[C@@H](O[C@@H]2O[C@H](C)C[C@H](N(C)C)[C@H]2O)[C@](C)(O)CC(C)C(=O)C(C)[C@@H](O)[C@]1(C)O` (some centres not stated), the half-life in series [1] was 2 h.
Turning to `CC(C)(C)NC(=O)C1CC[C@H]2[C@@H]3CC[C@H]4NC(=O)C=C[C@]4(C)[C@H]3CC[C@]12C` (some centres not stated), in series [2] (dog), the distribution volume (Vd) was 0.36 L/kg and the clearance is 2.1 mL/min/kg.
As to `Cn1nnc2c(C(N)=O)ncn2c1=O`, in series [1], the mean residence time MRT is 2.3 h and the clearance is 3.6 mL/min/kg.
Regarding `CC=CC1=C(C(=O)O)N2C(=O)C(NC(=O)C(N)c3ccc(O)cc3)[C@H]2SC1` (some centres not stated), the free fraction (fraction unbound) in series [1] is 0.59.
